Consider 13 compounds from BindingDB's records for PubMed 20126400 (University of Oklahoma, 2010).

Chains of the proteins cited; added tags and fusions are not shown. Lines headed by an entry give the natural chain unless they say otherwise; changes in a name come on top.
UniProt P18089, whole entry: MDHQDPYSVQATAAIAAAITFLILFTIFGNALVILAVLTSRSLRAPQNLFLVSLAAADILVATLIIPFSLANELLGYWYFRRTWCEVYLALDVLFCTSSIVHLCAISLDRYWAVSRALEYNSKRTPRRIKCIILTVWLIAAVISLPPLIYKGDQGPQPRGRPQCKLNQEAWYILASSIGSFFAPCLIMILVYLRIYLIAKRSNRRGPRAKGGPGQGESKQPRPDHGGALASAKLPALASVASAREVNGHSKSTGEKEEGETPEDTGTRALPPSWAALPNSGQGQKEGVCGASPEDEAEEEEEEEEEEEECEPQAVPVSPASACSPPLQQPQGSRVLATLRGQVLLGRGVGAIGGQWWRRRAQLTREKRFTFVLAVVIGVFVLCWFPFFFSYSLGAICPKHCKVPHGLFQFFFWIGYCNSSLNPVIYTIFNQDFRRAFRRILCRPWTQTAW
UniProt P33535, whole entry: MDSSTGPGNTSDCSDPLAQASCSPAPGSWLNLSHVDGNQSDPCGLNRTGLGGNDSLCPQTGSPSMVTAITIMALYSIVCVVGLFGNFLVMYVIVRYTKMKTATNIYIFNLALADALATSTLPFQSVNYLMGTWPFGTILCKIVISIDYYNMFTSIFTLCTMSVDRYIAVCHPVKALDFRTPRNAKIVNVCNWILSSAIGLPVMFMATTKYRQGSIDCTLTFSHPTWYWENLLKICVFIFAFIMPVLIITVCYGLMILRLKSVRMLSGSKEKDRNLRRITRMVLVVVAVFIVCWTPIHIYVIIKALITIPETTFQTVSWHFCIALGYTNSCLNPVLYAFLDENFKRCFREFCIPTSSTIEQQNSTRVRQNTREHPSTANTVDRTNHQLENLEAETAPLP
UniProt P21917, whole entry: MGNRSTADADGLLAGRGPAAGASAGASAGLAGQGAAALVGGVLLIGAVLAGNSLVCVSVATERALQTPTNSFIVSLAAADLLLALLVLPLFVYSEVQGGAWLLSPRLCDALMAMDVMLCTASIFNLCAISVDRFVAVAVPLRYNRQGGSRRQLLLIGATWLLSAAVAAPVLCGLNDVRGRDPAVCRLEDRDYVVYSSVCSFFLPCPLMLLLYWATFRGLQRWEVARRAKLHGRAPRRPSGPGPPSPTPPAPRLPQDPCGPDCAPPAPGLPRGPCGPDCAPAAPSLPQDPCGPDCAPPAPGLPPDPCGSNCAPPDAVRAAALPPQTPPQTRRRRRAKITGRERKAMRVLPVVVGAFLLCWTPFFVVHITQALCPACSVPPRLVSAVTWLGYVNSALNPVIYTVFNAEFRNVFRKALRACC
UniProt P34969, whole entry: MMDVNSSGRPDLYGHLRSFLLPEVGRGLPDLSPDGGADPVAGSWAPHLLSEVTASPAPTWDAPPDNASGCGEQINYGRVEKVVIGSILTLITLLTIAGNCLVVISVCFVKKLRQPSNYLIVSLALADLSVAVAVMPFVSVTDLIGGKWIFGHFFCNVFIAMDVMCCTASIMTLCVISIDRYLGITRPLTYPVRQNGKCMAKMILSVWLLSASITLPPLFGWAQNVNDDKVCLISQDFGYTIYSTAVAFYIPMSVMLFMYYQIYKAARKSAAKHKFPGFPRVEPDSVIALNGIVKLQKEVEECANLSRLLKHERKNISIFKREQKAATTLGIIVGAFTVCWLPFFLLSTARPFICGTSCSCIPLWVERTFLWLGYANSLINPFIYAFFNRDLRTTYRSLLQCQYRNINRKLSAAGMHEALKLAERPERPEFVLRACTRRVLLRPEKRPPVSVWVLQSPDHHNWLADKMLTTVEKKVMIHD
UniProt P11229: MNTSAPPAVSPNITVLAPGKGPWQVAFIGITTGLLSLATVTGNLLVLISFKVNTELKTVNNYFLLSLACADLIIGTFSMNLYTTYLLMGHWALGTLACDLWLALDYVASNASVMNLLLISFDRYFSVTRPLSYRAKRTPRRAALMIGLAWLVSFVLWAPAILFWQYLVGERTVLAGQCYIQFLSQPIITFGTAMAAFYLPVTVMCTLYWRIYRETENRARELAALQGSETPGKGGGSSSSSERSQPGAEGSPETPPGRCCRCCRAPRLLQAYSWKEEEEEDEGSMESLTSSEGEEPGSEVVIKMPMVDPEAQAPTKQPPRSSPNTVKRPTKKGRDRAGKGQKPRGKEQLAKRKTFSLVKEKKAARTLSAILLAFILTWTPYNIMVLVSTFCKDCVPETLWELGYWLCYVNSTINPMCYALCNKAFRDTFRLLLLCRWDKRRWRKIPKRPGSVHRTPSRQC
UniProt P50406, whole entry: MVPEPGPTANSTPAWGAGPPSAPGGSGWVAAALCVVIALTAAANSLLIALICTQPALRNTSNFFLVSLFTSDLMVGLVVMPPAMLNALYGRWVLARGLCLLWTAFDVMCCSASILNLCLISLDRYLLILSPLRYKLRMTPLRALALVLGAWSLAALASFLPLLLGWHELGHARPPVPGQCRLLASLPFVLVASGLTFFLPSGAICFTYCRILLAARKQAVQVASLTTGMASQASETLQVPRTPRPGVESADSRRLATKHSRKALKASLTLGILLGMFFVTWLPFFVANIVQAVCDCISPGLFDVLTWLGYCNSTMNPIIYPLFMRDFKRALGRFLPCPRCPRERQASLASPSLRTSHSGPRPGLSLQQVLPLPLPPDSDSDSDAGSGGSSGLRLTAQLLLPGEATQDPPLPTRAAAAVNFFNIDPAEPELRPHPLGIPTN
UniProt P28566: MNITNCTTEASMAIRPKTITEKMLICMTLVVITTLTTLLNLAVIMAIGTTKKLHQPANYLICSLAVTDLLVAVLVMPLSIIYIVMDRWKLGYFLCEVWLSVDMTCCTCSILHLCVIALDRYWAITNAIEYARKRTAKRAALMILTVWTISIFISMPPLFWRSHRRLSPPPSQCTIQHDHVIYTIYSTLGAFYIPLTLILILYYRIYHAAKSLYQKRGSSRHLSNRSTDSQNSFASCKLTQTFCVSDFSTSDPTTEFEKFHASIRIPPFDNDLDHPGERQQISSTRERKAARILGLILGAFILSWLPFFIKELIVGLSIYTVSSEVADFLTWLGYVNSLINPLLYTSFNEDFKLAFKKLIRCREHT

The target of test [1] is Alpha-2B adrenergic receptor (Homo sapiens, UniProt P18089). Description: Ray2010 Assay 74.
Test [2] deals with T1, Mu-type opioid receptor (Rattus norvegicus, UniProt P33535). The experiment in a line: Ray2010 Assay 56. The text has this:
DAGO forebrain .

The target in test [3] is T1, Mu-type opioid receptor. The experiment in a line: Ray2010 Assay 57. The text has this: thalamic membraines Pablo et al. 1998.
Test [4] has as its target D(4) dopamine receptor (Homo sapiens, UniProt P21917). The experiment in a line: Ray2010 Assay 74.
Test [5] has as its target 5-hydroxytryptamine receptor 7 (Homo sapiens, UniProt P34969). The experiment in a line: Ray2010 Assay 74.
Test [6] addresses Muscarinic acetylcholine receptor M1 (Homo sapiens, UniProt P11229). Description: Ray2010 Assay 74.
For test [7], the target named is 5-hydroxytryptamine receptor 6 (Homo sapiens, UniProt P50406). The experiment in a line: Ray2010 Assay 74.
Test [8] has as its target 5-hydroxytryptamine receptor 1E (Homo sapiens, UniProt P28566). The experiment in a line: Ray2010 Assay 74.

A value given as a limit tells only on which side of the number the result lay.

On to `CCOc1cc(OC)c(CC(C)N)cc1OC` (centres undefined), for which the inhibitory constant (Ki) (usually a dissociation constant, usually derived from enzyme kinetics or from competition with a known ligand) in test [1] was above 10000 nM.
On to `CC[C@H]1C[C@@H]2C[C@H]3c4[nH]c5ccc(OC)cc5c4CCN(C2)[C@@H]13`, for which, in test [2], the IC50 (commonly the concentration at which inhibition is half-maximal) was found to be 26000 nM. Also, in test [3], affinity was put at a Ki of 3760 nM.
As to `CC(C)N(CCc1c[nH]c2ccccc12)C(C)C` [dipt], in test [1], the affinity corresponds to a Ki of 2870 nM.
As for `C[C@@H]1C[C@@H](C)N1C(=O)C1C=C2c3cccc4[nH]cc(c34)C[C@H]2N(C)C1` (some centres undefined) [rr-2b], the Ki in test [4] was 168 nM.
Consider `NCCc1c2c(c(Br)c3c1OCC3)OCC2` [2-(8-Bromo-2,3,6,7-tetrahydro-benzo[1,2-b;4,5-b']difuran-4-yl)-ethylamine], for which the inhibition constant (Ki) in test [1] was 624 nM; in test [5] it was 606 nM; in test [6] it was 643 nM.
In test [1], `CN(C)CCc1c[nH]c2cc(F)ccc12` [6-f-dmt] gave a Ki of 260 nM.
Turning to `CCSc1cc(OC)c(CC(C)N)cc1OC` (centres undefined) [2-(4-Ethylsulfanyl-2,5-dimethoxy-phenyl)-1-methyl-ethylamine], the inhibition constant (Ki) in test [7] is 3020 nM; in test [1] it was 2930 nM; in test [8], 3090 nM.
Regarding `CCSc1cc(OC)c(CCN)cc1OC` [2C-T-2], the Ki came out at 982 nM in test [1] and 969 nM in test [5].
In test [1], `COc1ccc2[nH]cc(CCN(C)C(C)C)c2c1` [5-meo-mipt] registered a Ki of 1690 nM.
`COc1cc(OC)c(OC)cc1CC(C)N` (stereo not drawn) [(+/-)1-Methyl-2-(2,4,5-trimethoxy-phenyl)-ethylamine] had a Ki in test [1] above 10000 nM.
In test [4], `C[C@@H]1C[C@H](C)N1C(=O)C1C=C2c3cccc4[nH]cc(c34)C[C@H]2N(C)C1` (stereo partly drawn) [cis-2a] registered a Ki of 74.2 nM.
For the compound `C[C@@H]1C[C@@H](C)N1C(=O)C1C=C2c3cccc4[nH]cc(c34)C[C@H]2N(C)C1` (some centres undefined) [ss-2c], in test [4], the inhibition constant Ki was found to be 95.5 nM.
In test [1], `CCSc1cc(OC)c(CC(N)CC)cc1OC` (centres undefined) [1-(4-Ethylsulfanyl-2,5-dimethoxy-benzyl)-propylamine] yielded a Ki above 10000 nM.
